Consider one compound from patent publication US20260028326A1, “COMPOUND BASED ON ISOINDOLINE-SUBSTITUTED GLUTARIMIDE BACKBONE AND USE THEREOF” (GLUETACS THERAPEUTICS (SHANGHAI) CO., LTD., priority 2022, published 2026).

Protein sequences, listed by entry. Tags and fused reporters are not part of them.
UniProt Q13422, whole entry: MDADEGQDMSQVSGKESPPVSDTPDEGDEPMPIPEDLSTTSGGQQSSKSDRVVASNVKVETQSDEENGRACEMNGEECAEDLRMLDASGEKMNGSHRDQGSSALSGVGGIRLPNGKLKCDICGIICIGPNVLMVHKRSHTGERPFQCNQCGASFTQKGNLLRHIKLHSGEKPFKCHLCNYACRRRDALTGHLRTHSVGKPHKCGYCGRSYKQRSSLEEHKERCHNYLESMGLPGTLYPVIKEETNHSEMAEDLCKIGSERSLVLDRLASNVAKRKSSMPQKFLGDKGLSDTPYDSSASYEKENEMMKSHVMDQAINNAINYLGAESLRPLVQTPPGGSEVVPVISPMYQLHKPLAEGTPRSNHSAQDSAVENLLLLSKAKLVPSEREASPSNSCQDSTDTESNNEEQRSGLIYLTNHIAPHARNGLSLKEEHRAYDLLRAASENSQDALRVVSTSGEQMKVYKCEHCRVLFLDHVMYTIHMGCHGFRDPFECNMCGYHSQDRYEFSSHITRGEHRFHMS
UniProt Q96SW2, whole entry: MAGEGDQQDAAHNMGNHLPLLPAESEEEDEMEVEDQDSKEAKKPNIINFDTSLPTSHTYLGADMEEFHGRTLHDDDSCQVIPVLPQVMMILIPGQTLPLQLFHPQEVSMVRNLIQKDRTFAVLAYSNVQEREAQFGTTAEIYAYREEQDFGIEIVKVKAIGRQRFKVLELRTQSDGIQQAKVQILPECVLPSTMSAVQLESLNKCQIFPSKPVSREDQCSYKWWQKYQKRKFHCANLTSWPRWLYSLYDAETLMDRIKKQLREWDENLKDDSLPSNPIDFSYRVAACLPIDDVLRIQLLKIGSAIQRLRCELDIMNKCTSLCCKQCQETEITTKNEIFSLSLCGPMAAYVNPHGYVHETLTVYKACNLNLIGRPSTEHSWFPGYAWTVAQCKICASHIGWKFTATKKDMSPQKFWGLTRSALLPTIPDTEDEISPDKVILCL
UniProt Q9UKT9, whole entry: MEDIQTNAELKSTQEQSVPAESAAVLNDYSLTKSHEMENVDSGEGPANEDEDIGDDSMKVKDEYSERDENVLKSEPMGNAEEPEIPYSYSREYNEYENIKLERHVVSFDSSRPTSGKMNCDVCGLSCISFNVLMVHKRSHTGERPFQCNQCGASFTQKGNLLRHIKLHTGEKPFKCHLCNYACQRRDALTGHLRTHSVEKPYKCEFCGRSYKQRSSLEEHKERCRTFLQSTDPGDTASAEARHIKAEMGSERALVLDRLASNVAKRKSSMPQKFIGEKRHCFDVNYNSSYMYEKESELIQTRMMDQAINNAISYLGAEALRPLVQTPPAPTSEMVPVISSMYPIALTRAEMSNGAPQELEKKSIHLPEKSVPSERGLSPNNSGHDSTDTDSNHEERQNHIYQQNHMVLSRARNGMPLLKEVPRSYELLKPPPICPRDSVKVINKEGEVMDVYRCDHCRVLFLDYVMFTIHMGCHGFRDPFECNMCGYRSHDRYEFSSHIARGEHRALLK
UniProt P15170, whole entry: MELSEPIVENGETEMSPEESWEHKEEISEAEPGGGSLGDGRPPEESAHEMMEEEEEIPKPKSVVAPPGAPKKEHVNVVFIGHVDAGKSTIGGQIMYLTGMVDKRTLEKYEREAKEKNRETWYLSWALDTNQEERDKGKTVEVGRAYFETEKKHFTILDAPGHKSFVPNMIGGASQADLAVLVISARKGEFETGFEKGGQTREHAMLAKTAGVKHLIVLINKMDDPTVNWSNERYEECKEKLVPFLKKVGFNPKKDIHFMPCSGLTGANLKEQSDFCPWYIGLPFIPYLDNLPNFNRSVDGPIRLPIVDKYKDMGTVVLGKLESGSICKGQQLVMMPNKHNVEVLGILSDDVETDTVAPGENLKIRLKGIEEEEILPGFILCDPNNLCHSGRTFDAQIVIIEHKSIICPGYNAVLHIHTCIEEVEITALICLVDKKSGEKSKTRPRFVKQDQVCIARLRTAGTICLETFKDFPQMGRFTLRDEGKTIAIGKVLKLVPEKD
UniProt Q16531, whole entry partner: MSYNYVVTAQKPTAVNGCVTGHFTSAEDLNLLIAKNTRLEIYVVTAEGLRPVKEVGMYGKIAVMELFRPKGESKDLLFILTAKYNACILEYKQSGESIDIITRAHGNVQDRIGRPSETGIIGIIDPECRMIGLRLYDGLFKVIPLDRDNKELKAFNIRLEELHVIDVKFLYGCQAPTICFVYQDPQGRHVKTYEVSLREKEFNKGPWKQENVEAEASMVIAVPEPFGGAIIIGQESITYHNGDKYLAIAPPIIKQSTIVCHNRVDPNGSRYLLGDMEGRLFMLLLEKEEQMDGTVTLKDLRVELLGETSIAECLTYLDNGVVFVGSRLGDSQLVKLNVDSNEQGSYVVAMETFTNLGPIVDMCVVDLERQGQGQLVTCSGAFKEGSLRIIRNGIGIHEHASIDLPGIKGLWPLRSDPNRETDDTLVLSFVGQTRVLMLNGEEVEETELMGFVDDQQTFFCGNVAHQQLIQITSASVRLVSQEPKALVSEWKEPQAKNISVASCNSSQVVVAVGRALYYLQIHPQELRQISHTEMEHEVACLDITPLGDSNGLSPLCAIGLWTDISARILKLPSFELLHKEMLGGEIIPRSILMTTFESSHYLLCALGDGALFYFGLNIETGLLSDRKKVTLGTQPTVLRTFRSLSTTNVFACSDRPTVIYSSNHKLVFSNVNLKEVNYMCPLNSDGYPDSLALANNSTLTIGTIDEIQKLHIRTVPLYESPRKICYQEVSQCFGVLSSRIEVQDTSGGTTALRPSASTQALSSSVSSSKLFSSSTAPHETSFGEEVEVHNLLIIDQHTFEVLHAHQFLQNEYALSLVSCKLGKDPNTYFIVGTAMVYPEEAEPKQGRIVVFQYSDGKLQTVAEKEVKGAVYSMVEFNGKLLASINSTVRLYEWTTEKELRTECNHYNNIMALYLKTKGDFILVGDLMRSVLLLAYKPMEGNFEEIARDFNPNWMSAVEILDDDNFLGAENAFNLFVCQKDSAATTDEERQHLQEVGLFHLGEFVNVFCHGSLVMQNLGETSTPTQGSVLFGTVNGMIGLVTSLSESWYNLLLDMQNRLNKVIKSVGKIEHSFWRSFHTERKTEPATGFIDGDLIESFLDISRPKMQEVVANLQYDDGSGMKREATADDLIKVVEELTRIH

As usually defined, the IC50 is the concentration needed to halve the response being measured.

The target in assay [1] is IKZF1 protein (Homo sapiens (Human), UniProt Q13422+Q96SW2). Kind of assay: Western-blot assay of substrate protein degradation in hPBMC, IKZF1. The class given is cell-based. The note with it: hPBMC cells, compound 500 nM, 24 hours.
The target of assay [2] is IKZF3 protein (Homo sapiens (Human), UniProt Q96SW2+Q9UKT9). Kind of assay: Western-blot assay of substrate protein degradation in hPBMC, IKZF3. The class given is cell-based. As to conditions: hPBMC cells, compound 500 nM, 24 hours.
The target of assay [3] is GSPT1 protein (Homo sapiens (Human), UniProt P15170+Q96SW2). Kind of assay: Western-blot assay of substrate protein degradation in hPBMC, GSPT1. As to conditions: hPBMC cells, compound 500 nM, 24 hours. It is filed as cell-based.
Assay [4] concerns the target human Cereblon WT GST-tagged protein (Homo sapiens (Human), UniProt Q96SW2). Description: CRBN-binding affinity, HTRF (CEREBLON BINDING kit). As to conditions: read-out: HTRF IC50. (In TR-FRET formats the signal depends on donor and acceptor labels being close together.)

As for `CC1(C)CCC(CN2CC3CCC2CN3C(=O)c2ccc3c(c2)CN(C2CCC(=O)NC2=O)C3=O)=C(c2ccc(F)cc2)C1` (stereo not shown), the “residual substrate protein level, IKZF1” value in assay [1] is recorded as “B (B represents a residual substrate protein level of >50%)”. The “residual substrate protein level, IKZF3” value in assay [2] is “B (B represents a residual substrate protein level of >50%)”. The “residual substrate protein level, GSPT1” value in assay [3] is recorded as “A (A represents a residual substrate protein level of <50%)”. Further, in assay [4], the IC50 is 970 nM.
